The source of these data is US20230140635A1, “3-(2-(Aminoethyl)-Indol-4-ol Derivatives, Methods of Preparation Thereof, and the Use as 5-HT2 Receptor Modulators” (priority 2020, published 2023).

Protein sequences, listed by entry. Tags and fused reporters are not part of them.
UniProt P28223, whole entry: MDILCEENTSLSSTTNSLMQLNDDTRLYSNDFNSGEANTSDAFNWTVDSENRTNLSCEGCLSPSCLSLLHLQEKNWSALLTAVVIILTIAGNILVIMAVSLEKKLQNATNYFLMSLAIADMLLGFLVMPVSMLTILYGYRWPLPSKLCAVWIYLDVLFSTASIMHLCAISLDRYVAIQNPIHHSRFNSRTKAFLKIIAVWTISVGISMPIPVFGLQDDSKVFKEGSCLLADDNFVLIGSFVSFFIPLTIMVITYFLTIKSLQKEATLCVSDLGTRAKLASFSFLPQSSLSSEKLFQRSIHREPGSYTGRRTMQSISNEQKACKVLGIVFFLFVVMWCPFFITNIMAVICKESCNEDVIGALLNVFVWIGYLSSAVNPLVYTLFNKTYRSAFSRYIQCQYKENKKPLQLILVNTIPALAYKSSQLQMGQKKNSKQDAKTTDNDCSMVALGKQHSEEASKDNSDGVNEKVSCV
UniProt P41595, whole entry: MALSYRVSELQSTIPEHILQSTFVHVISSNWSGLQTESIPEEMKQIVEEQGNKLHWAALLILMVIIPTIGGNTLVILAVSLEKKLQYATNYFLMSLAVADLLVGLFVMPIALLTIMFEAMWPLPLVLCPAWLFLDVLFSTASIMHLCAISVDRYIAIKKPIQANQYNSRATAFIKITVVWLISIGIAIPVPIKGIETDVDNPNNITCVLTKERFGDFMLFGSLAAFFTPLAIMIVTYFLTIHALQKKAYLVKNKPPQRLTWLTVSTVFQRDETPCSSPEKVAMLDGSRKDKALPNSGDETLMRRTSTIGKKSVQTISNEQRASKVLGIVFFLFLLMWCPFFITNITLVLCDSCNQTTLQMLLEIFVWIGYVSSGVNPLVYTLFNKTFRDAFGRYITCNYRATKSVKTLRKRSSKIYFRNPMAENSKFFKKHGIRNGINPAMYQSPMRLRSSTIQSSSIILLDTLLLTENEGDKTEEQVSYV

For one assay, the target named is 5-HT2A (Homo sapiens, UniProt P28223). Nature of the assay: 5-HT2 Gq-Dissociation BRET assay. More on the design: expressed in transfected cells; host or cells: HEK293T. Format: cell-based.
In another assay the target is 5-HT2B (Homo sapiens, UniProt P41595). As to conditions: read-out: IC50 nM 5-HT2 Gq Dissociation BRET assay, 5-HT2B.

In the case of `CN(C)CCc1c[nH]c2cccc(O)c12` [Psilocin, psilocin], the “% efficacy vs 5-HT@ 100%, 5-HT2A” value at 5-HT2A is recorded as 8.34 nM (82%). The IC50 at 5-HT2B was 1.07 nM.
